CycPeptMPDB entries from one study

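Lipid, pH, incubation time, direction and concentration are not recorded in the data file. The list need not hold all peptides of the study. Entries at the database's floor value (log10 P of -10) are not listed.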

PAMPA is the parallel artificial membrane permeability assay, which has no cells and reads passive diffusion. Permeability is in 10^-6 cm/s, converted from the database's log10 values; higher is more permeable.

{"smiles": "CC(C)C[C@@H]1NC(=O)[C@@H](C)NC(=O)[C@H](Cc2ccccc2)NC(=O)[C@@H](CC(C)C)NC(=O)[C@H]2CCCN2C(=O)[C@@H](CC(C)C)NC1=O", "PAMPA (10^-6 cm/s)": "0.46"}
{"smiles": "CC(C)C[C@@H]1C(=O)N[C@@H](Cc2ccccc2)C(=O)N2CCC[C@H]2C(=O)N(C)[C@H](C)C(=O)N(C)[C@@H](CC(C)C)C(=O)N(C)[C@H](CC(C)C)C(=O)N2CCC[C@@H]2C(=O)N1C", "PAMPA (10^-6 cm/s)": "3.2"}
{"smiles": "CC(C)C[C@H]1NC(=O)[C@@H](C)NC(=O)[C@H]2CCCN2C(=O)[C@H](Cc2ccccc2)NC(=O)CN(Cc2ccccc2)C(=O)[C@@H]2CCCN2C(=O)CN(Cc2ccccc2)C1=O", "PAMPA (10^-6 cm/s)": "0.29"}
{"smiles": "CC(C)C[C@@H]1NC(=O)[C@@H]2CCCN2C(=O)[C@@H](CC(C)C)NC(=O)[C@H](CC(C)C)N(C)C(=O)[C@@H](C)N(C)C(=O)[C@H]2CCCN2C(=O)[C@H](Cc2ccccc2)NC1=O", "PAMPA (10^-6 cm/s)": "0.44"}
{"smiles": "CC(C)C[C@@H]1NC(=O)[C@H](C)N(C)C(=O)[C@H]2CCCN2C(=O)[C@H](Cc2ccccc2)NC(=O)CN(Cc2ccccc2)C(=O)[C@H]2CCCN2C(=O)[C@@H](CC(C)C)N(C)C1=O", "PAMPA (10^-6 cm/s)": "4.3"}
{"smiles": "CCCN1CC(=O)N(Cc2ccccc2)CC(=O)N(C)[C@@H](CC(C)C)C(=O)N2CCC[C@@H]2C(=O)N[C@@H](CC(C)C)C(=O)N[C@@H](Cc2ccccc2)C(=O)N2CCC[C@@H]2C1=O", "PAMPA (10^-6 cm/s)": "5.4"}
{"smiles": "CC(C)C[C@@H]1C(=O)N2CCC[C@H]2C(=O)N[C@H](CC(C)C)C(=O)N[C@@H](Cc2ccccc2)C(=O)N2CCC[C@@H]2C(=O)N(C)[C@H](C)C(=O)N(C)[C@@H](CC(C)C)C(=O)N1C", "PAMPA (10^-6 cm/s)": "1.6"}
{"smiles": "CC(C)C[C@H]1NC(=O)[C@H](C)N(C)C(=O)[C@H](Cc2ccccc2)NC(=O)CN(Cc2ccccc2)C(=O)[C@@H]2CCCN2C(=O)[C@@H](CC(C)C)NC1=O", "PAMPA (10^-6 cm/s)": "7.8"}
{"smiles": "CC(C)C[C@H]1NC(=O)[C@H](C)NC(=O)[C@H]2CCCN2C(=O)[C@H](Cc2ccccc2)NC(=O)[C@@H](CC(C)C)NC(=O)[C@@H]2CCCN2C(=O)[C@@H](CC(C)C)NC1=O", "PAMPA (10^-6 cm/s)": "0.35"}
{"smiles": "CC(C)C[C@@H]1NC(=O)[C@@H](CC(C)C)NC(=O)C[C@H](Cc2ccccc2)NC(=O)[C@H]2CCCN2C(=O)[C@H](Cc2ccccc2)NC(=O)CN(Cc2ccccc2)C(=O)[C@@H]2CCCN2C1=O", "PAMPA (10^-6 cm/s)": "2.1"}
{"smiles": "CC(C)C[C@@H]1C(=O)N[C@@H](Cc2ccccc2)C(=O)N[C@@H](C)C(=O)N(C)[C@@H](CC(C)C)C(=O)N(Cc2ccccc2)CC(=O)N2CCC[C@H]2C(=O)N1C", "PAMPA (10^-6 cm/s)": "6.3"}
{"smiles": "CC(C)C[C@@H]1NC(=O)C[C@H](Cc2ccccc2)NC(=O)[C@H]2CCCN2C(=O)[C@H](Cc2ccccc2)NC(=O)[C@@H](CC(C)C)NC(=O)[C@H]2CCCN2C(=O)[C@@H](CC(C)C)NC1=O", "PAMPA (10^-6 cm/s)": "1.1"}
{"smiles": "CC(C)C[C@@H]1NC(=O)CN(Cc2ccccc2)C(=O)[C@H](C)N(C)C(=O)[C@H]2CCCN2C(=O)[C@H](Cc2ccccc2)NC(=O)[C@@H](CC(C)C)N(C)C(=O)[C@@H]2CCCN2C1=O", "PAMPA (10^-6 cm/s)": "3"}
{"smiles": "CC(C)C[C@@H]1NC(=O)[C@@H]2CCCN2C(=O)CN(Cc2ccccc2)C(=O)[C@@H](CC(C)C)N(C)C(=O)[C@H](C)NC(=O)[C@@H]2CCCN2C(=O)[C@H](Cc2ccccc2)NC1=O", "PAMPA (10^-6 cm/s)": "0.89"}
{"smiles": "CC(C)C[C@@H]1NC(=O)[C@H](C)N(C)C(=O)[C@@H]2CCCN2C(=O)[C@H](Cc2ccccc2)NC(=O)[C@@H](CC(C)C)NC(=O)[C@@H]2CCCN2C(=O)[C@@H](CC(C)C)N(C)C1=O", "PAMPA (10^-6 cm/s)": "1.1"}
{"smiles": "CC(C)C[C@H]1NC(=O)[C@@H](C)N(C)C(=O)[C@@H]2CCCN2C(=O)[C@H](Cc2ccccc2)NC(=O)[C@H](CC(C)C)N(C)C(=O)[C@H]2CCCN2C(=O)[C@H](CC(C)C)N(C)C1=O", "PAMPA (10^-6 cm/s)": "7.2"}
{"smiles": "CC(C)C[C@@H]1NC(=O)[C@H](CC(C)C)N(C)C(=O)[C@@H](C)NC(=O)[C@H](Cc2ccccc2)NC(=O)[C@H](CC(C)C)N(C)C(=O)[C@H]2CCCN2C1=O", "PAMPA (10^-6 cm/s)": "13"}
{"smiles": "CC(C)C[C@H]1NC(=O)[C@@H](C)NC(=O)[C@H](Cc2ccccc2)NC(=O)[C@H](CC(C)C)N(C)C(=O)[C@@H]2CCCN2C(=O)[C@H](CC(C)C)N(C)C1=O", "PAMPA (10^-6 cm/s)": "1.1"}
{"smiles": "CC(C)C[C@H]1NC(=O)[C@H]2CCCN2C(=O)C[C@H](Cc2ccccc2)NC(=O)[C@H](CC(C)C)N(C)C(=O)[C@H](C)NC(=O)[C@H](Cc2ccccc2)NC1=O", "PAMPA (10^-6 cm/s)": "0.49"}
{"smiles": "CC(C)C[C@@H]1NC(=O)[C@@H](CC(C)C)NC(=O)C[C@H](Cc2ccccc2)NC(=O)[C@H]2CCCN2C(=O)[C@H](Cc2ccccc2)NC(=O)[C@H](CC(C)C)N(C)C(=O)[C@H]2CCCN2C1=O", "PAMPA (10^-6 cm/s)": "4.3"}
{"smiles": "CC(C)C[C@@H]1NC(=O)[C@H](C)NC(=O)[C@H](Cc2ccccc2)NC(=O)CN(Cc2ccccc2)C(=O)[C@H]2CCCN2C(=O)CN(Cc2ccccc2)C1=O", "PAMPA (10^-6 cm/s)": "0.93"}

The 3 highest values of PAMPA among the entries above:

structure (SMILES)	PAMPA (10^-6 cm/s)
CC(C)C[C@@H]1NC(=O)[C@H](CC(C)C)N(C)C(=O)[C@@H](C)NC(=O)[C@H](Cc2ccccc2)NC(=O)[C@H](CC(C)C)N(C)C(=O)[C@H]2CCCN2C1=O	13
CC(C)C[C@H]1NC(=O)[C@H](C)N(C)C(=O)[C@H](Cc2ccccc2)NC(=O)CN(Cc2ccccc2)C(=O)[C@@H]2CCCN2C(=O)[C@@H](CC(C)C)NC1=O	7.8
CC(C)C[C@H]1NC(=O)[C@@H](C)N(C)C(=O)[C@@H]2CCCN2C(=O)[C@H](Cc2ccccc2)NC(=O)[C@H](CC(C)C)N(C)C(=O)[C@H]2CCCN2C(=O)[C@H](CC(C)C)N(C)C1=O	7.2

Values of Townsend et al. 2020, doi:10.26434/chemrxiv.13335941.v1, as listed in CycPeptMPDB.